A selection: hits, their analogues and other compounds. The true share with any hit is near 1.5%.
UUG fidelity = modulators of yeast start codon fidelity, primary screen, whole organism, S. cerevisiae, single point, plate reader; S. cerevisiae UUG-firefly luciferase reporter, luminescence/redox ratio; activity score, % at 18.7 µM; actives 0.13% (n = 350,000); AID 602363, 2012;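 active = replicate mean at a twofold rise or more, about +100% in these data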;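 also: firefly luciferase made from a UUG start codon reports start codon fidelity; reporter light over untreated wells divided by growth signal over untreated wells; some hits fall short of that in this replicate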
miR122 inh = inhibitors of miR-122 in Huh7 cells; Huh7 miR-122 Renilla luciferase sensor, 48 h; neutral wells = 0, positive control = 100; activation (reporter increase), % at 12.5 µM; hit rate 0.3% among 340,000; AID 602342;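 active = mean replicate activation score at least 90 and every replicate individually at or above 90; inconclusive = only one of the two criteria met; inactive = neither criterion met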;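 note: higher luciferase means less miR-122 activity so hits act as miR-122 inhibitors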
Cneo AK release = Cryptococcus neoformans lysis via adenylate kinase release; hit rate 0.2% among 360,000; lysis activity, % at 15 µM; C. neoformans lysis, adenylate kinase release luminescence, 4 h; normalised: neutral wells 0, clomiphene wells 100; AID 651654;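 active = mean lysis activity across replicates of at least 80%, whatever share of replicates individually reach that level; inactive = mean lysis activity below 80%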
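Assay system: Cryptococcus neoformans yeast cells / Dosing: single-point compound dose / Timing: 4 h at 37 °C static, read 1 h later / Measured by: luminescence of released adenylate kinase using an AK detection reagent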
FN deposition inh = fibronectin deposition inhibition. inhibition, % at 12.6 µM. hit rate 0.086% among 350,000. AH1F fibroblasts, Alexa488-fibronectin deposition fluorescence, overnight;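 active = mean inhibition across replicates of 30% or more, regardless of how many single replicates reach that level; inconclusive = mean under 30% yet at least half of replicates reach 30%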;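 note: positive control wells lacked labelled fibronectin entirely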
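material = AH1F fibroblast monolayer depositing Alexa488-labelled fibronectin into matrix | amount = 10000 AH1F cells/well | buffer or medium = DMEM plus 2% serum, read in PBS | incubation = 1 h cell adhesion before compound, then overnight fibronectin incubation | detection = fluorescence at 485 nm excitation, 525 nm emission | evaluation = percent inhibition as loss of matrix-bound fibronectin fluorescence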
HIV Env fusion = inhibitors of HIV Env-mediated cell fusion; hit rate 1.1% among 360,000; inhibition, % at 12.3 µM; AID 651610; HeLa-JRFL Env/CEM21 cell fusion, luciferase;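 active = mean replicate inhibition score of at least 50 and every replicate individually at or above 50; inconclusive = only one of the two criteria met; inactive = mean below 50 and not all replicates reaching 50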;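 note: 0% = plate neutral controls and 100% = maraviroc near 300 nM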
PGC1a acetyl inh = modulators of PGC1a acetylation; inhibition, % at 15.6 µM; hit rate 0.17% among 350,000; U2OS PGC1a acetylation, AlphaScreen anti-acetyl-lysine; with virally co-expressed GCN5 acetyltransferase;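 active = every replicate shows inhibition of at least 40%; inconclusive = mean inhibition at least 40% but some replicate below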;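 note: 0% = neutral control wells and 100% = positive control wells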
C2C12 COX5a inh = C2C12 myotube COX5a expression inhibition. shares compounds with PGC1a acetyl inh. AID 743461. 45 tested, under 10 active. maximal activity, %. C2C12 myotubes PGC-1a adenovirus, COX5a qPCR;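 active = fitted dose curve reaching 40% activity at or below the highest valid dose tested; inconclusive = flat fit between 30% and 70%, or an unusable fit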
AID743468 = change in PGC-1a target gene PDK4 expression, dose response, C2C12 myotubes, RT-qPCR, cherry-pick; shares compounds with PGC1a acetyl inh; PGC-1a adenovirus, PDK4 mRNA qPCR; PDK4 expression increase, % at 19.5 µM; 45 tested, under 10 active; AID 743468;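 active = fitted curve reaching a 40% PDK4 expression rise at or below the top valid tested dose; inconclusive = no clear call, values can overlap the other calls; inactive = the rest, including shifts the wrong way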
Active calls of the source: *; u = inconclusive; x = not tested or not shown; [ ] = remark or other dose.

No.	structure	UUG fidelity	miR122 inh	Cneo AK release	FN deposition inh	HIV Env fusion	PGC1a acetyl inh	C2C12 COX5a inh	AID743468
1	Nc1ncnc(NCc2ccc(F)cc2)c1[N+](=O)[O-]	x	x	x	10.7	44.8	49.7*	-25.2	32.1
2	CC1=C(Cl)C2=NS(=O)(=O)CCN2C=C1Cl	x	2.5	x	-2.9	-11.9	u	-23.1	-0.2
3	O=C1c2ccccc2OC2(C=Cc3ccccc3O2)N1Cc1ccccc1 (stereo not given)	9.6	-1.3	-2.2	x	x	-11.6	x	x
4	Cc1cc2c(c(/C=C/C(=O)c3ccccc3)c1)OC1(C=C2)Oc2ccccc2C(=O)N1C (stereo not given)	x	x	x	-1.6	-299.4	49.6*	-44.4	-53.3
5	COc1cccc(S(=O)(=O)N2C[C@@H]3N[C@H](C2)C3c2ccc(-c3ccccc3OC)cc2)c1 (stereo not given in full)	x	x	x	-0.2	x	-11.6	x	x
6	COc1ccccc1-c1ccc([C@@H]2[C@@H]3CN(S(=O)(=O)c4ccc(-c5ccccc5)cc4)C[C@H]2N3)cc1	x	x	x	-8.1	x	-56.0	-33.7	-43.9
7	CCOc1cc(CNC2CCCC2)cc(Cl)c1OCc1ccc(F)cc1	-18.3	x	7.2	x	x	78.4*	-27.0	-9.3
8	COc1cccc(-c2cc(C(=O)N3CCN(C(c4ccccc4)c4ccccc4)CC3)no2)c1	-8.9	1.1	0.8	x	41.6	-24.4	x	x
9	CC(=O)N(C)C[C@@H]1OCc2ccccc2-c2ccccc2C(=O)N([C@H](C)CO)C[C@H]1C	x	x	1.1	3.8	-2.9[16.7 µM]	4.5	x	x
10	COc1ccccc1C#Cc1ccc2c(c1)O[C@@H](CN(C)Cc1cccnc1)[C@H](C)CN([C@H](C)CO)S2(=O)=O	x	-28.0[16.7 µM]	46.4	x	x	43.2*	11.3	u
11	C[C@@H]1CN([C@H](C)CO)S(=O)(=O)c2ccc(C#Cc3ccncc3)cc2O[C@H]1CN(C)C(=O)C1CCCCC1	0.9	52.1[16.7 µM]	1.2	x	7.8[16.7 µM]	-21.1	x	x
12	C[C@H](CO)N1C[C@H](C)[C@@H](CN(C)C(=O)C2CCCCC2)Oc2cc(C#Cc3ccncc3)ccc2S1(=O)=O	6.5	-11.4[16.7 µM]	-0.5	x	-89.9[16.7 µM]	u	-21.2	-1.6
13	C[C@H]1CN([C@@H](C)CO)S(=O)(=O)c2ccc(-c3ccccc3)cc2O[C@@H]1CN(C)Cc1cccc(F)c1	0.2	10.0[16.7 µM]	8.4	-16.7	29.7[16.7 µM]	48.1*	-51.5	-20.0
14	O=c1cc(CSc2ccccn2)[nH]c(=O)[nH]1	57.9	3.3	-0.7	x	x	u	-27.3	-6.3
15	O=c1cc(CCc2ccccc2)[nH]c(=O)[nH]1	x	x	x	1.3	-3.0	x	x	x

Filtered by structure: the compounds so far with fluorine
No.	structure	UUG fidelity	miR122 inh	Cneo AK release	FN deposition inh	HIV Env fusion	PGC1a acetyl inh	C2C12 COX5a inh	AID743468
1	Nc1ncnc(NCc2ccc(F)cc2)c1[N+](=O)[O-]	x	x	x	10.7	44.8	49.7*	-25.2	32.1
7	CCOc1cc(CNC2CCCC2)cc(Cl)c1OCc1ccc(F)cc1	-18.3	x	7.2	x	x	78.4*	-27.0	-9.3
13	C[C@H]1CN([C@@H](C)CO)S(=O)(=O)c2ccc(-c3ccccc3)cc2O[C@@H]1CN(C)Cc1cccc(F)c1	0.2	10.0[16.7 µM]	8.4	-16.7	29.7[16.7 µM]	48.1*	-51.5	-20.0

(further entries)
No.	structure	UUG fidelity	miR122 inh	Cneo AK release	FN deposition inh	HIV Env fusion	PGC1a acetyl inh	C2C12 COX5a inh	AID743468
16	CCN1CCN(Cc2ccc(NC(=O)c3cc(NC(=O)c4cncc(-c5ccc(C#N)cc5)c4)cc(OC)c3)cc2C(F)(F)F)CC1	8.9	-29.5	6.1	10.3	4.4	85.9*	-46.0	0.7
17	Nc1ccn([C@@H]2O[C@H](C(=O)N3CCN(Cc4ccccn4)CC3)[C@@H](O)[C@H]2O)c(=O)n1	x	x	x	-6.1	0.6	x	x	x
18	O=C(C[C@H]1CC[C@@H](NC(=O)c2ccccc2)[C@H](CO)O1)Nc1ccc(-c2ccccc2)cc1	-15.9	-10.9[16.7 µM]	0.8	-0.3	-1.4[16.7 µM]	43.7*	-29.0	-29.5
19	O=C(C[C@@H]1CC[C@H](NC(=O)c2ccncc2)[C@@H](CO)O1)Nc1ccccc1	-21.4	x	-2.9	8.7	0.8[16.7 µM]	5.3	x	x
20	CCc1ccc(NC(=O)CCC(=O)Nc2nnc(C(C)C)s2)cc1	-25.9	x	1.5	2.7	4.4	x	x	x
21	CCCNC(=O)N(C)C[C@@H]1Oc2ncc(C3=CCCCC3)cc2C(=O)N([C@H](C)CO)C[C@H]1C	8.1	3.7[16.7 µM]	-0.5	x	-10.6[16.7 µM]	-0.1	x	x
22	NC(=O)c1ccccc1NS(=O)(=O)c1ccc2c(c1)OCCO2	2.6	-0.6	0.0	-1.5	-18.7	x	x	x
23	Cc1nc(Nc2ccccc2)sc1C(=O)Nc1ccccc1	x	x	x	2.8	-37.5	x	x	x
24	Cc1nc(Nc2ccc(S(N)(=O)=O)cc2)sc1C(=O)Nc1ccccc1	x	x	x	6.2	-29.9	u	-25.7	-7.8
25	Cc1nc2ccccn2c1C(=O)/C=C/c1ccc(F)cc1	-14.5	-7.5	-3.4	x	x	u	-22.9	6.0
26	Cc1cccc(NC(=O)CNC(=O)Cn2ncc(Cl)c(Cl)c2=O)c1C	-27.0	38.5	-0.9	x	x	u	-39.4	26.2
27	CS(=O)c1nc(-c2ccc(Br)cc2)cc(-c2ccccc2)c1C#N (stereo not given)	-3.0	x	3.9	x	x	90.7*	-38.4	11.5
28	O=C(Nc1ccc(C(F)(F)F)cc1)N1C[C@@H]2N[C@H](C1)C2c1ccc(-c2ccccc2)cc1 (stereo not given in full)	x	x	x	-9.5	x	u	-43.2	-24.5
29	CCOc1ccc(OCc2ccc(C(=O)N3N=C(C(F)F)CC3(O)C(F)F)o2)cc1 (stereo not given)	-3.2	7.3	-1.7	x	x	-2.1	x	x
30	COCCn1c(=N)c(S(=O)(=O)c2ccc(F)cc2)cc2c(=O)n3cccc(C)c3nc21	-8.0	-5.0	2.1	9.2	-2.7	-3.1	x	x
31	CC(C)[C@H](NC(=O)c1ccccc1)C(=O)OCC(=O)c1ccc2c(c1)NC(=O)CO2	-10.4	3.0	-3.9	x	-32.5	2.4	x	x
32	CC[C@H](C)[C@H](NC(=O)c1ccc(Cl)cc1)C(=O)OCC(=O)c1ccc2c(c1)NC(=O)CO2	-7.0	4.3	-5.1	-1.2	-31.9	u	-16.4	5.1
33	C[C@@H]1CN([C@@H](C)CO)C(=O)c2cccc(N(C)C)c2O[C@@H]1CN(C)Cc1ccc(C(F)(F)F)cc1	3.9	-3.1[16.7 µM]	-17.3	1.8	7.4[16.7 µM]	-4.9	x	x

An excerpt from above in order of length of the SMILES, rising:
No.	structure	UUG fidelity	miR122 inh	Cneo AK release	FN deposition inh	HIV Env fusion	PGC1a acetyl inh	C2C12 COX5a inh	AID743468
19	O=C(C[C@@H]1CC[C@H](NC(=O)c2ccncc2)[C@@H](CO)O1)Nc1ccccc1	-21.4	x	-2.9	8.7	0.8[16.7 µM]	5.3	x	x
31	CC(C)[C@H](NC(=O)c1ccccc1)C(=O)OCC(=O)c1ccc2c(c1)NC(=O)CO2	-10.4	3.0	-3.9	x	-32.5	2.4	x	x
16	CCN1CCN(Cc2ccc(NC(=O)c3cc(NC(=O)c4cncc(-c5ccc(C#N)cc5)c4)cc(OC)c3)cc2C(F)(F)F)CC1	8.9	-29.5	6.1	10.3	4.4	85.9*	-46.0	0.7

Source: PubChem BioAssay (Broad Institute)
